# Ab-95 light chain CDR variants: yeast mating affinities

Binding partner: SARS-CoV-2 spike HR2 peptide, sequence PDVDLGDISGINAS.

The variants keep the heavy chain, the linker and the frameworks of Ab-95 (scFv order VH, a (GGGGS)3 linker, VL).
VH: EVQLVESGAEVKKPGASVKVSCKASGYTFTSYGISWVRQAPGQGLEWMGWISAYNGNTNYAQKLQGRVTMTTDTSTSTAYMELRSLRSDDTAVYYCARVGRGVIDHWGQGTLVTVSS
VL: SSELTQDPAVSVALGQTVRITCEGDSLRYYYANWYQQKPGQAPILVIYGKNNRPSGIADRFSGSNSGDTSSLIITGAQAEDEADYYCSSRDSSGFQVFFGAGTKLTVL

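Library AAYL52 holds single substitutions and randomly drawn double and triple substitutions in the CDRs. The assay is AlphaSeq: two haploid yeast populations carry antibody and antigen on their surface. Mating (16 h, 30 °C) was followed by selection of diploids and sequencing of their barcodes. Scores were corrected for input abundance and mapped to Kd with protein pairs of known affinity run in the same pool. There are three technical replicates.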

The parent's light chain CDRs are EGDSLRYYYAN, GKNNRPS, SSRDSSGFQVF; each variant's own CDRs replace them letter for letter.
Numbers give log10(Kd / nM), so 0 is 1 nM and 3 is 1 µM. Smaller is tighter.
The mean shown is taken over the replicates in which the pair was detected.
A pair that was not seen in any replicate is written "not detected"; this usually means weak binding, but a binder can also be missed.
Order: sorted from the lowest average up, undetected variants last.
As a blank, each scFv also met three strains without target: over library AAYL52, 28% of these pairings were detected, typically at 3.91 and seldom below 2.90. For each scFv, signals with the empty controls are counted beside the result.
Parent in this assay: reference entry 2.31, copy in this library 2.25.

CDR-L1	CDR-L2	CDR-L3	mean log10 Kd (nM)	detected	empty controls
EGDSLNYYAAN	GKNNRPM	SSRDSSGFQVF	1.33	3 of 3	5 of 9
EDDSLRYYYAN	GKNNRPS	NSRDSSGFQVN	1.57	3 of 3	2 of 9
EGDSLRYYKAD	GKNNRPM	SSRDSSGFQVF	2.04	3 of 3	4 of 9
EGTSLRYYYAN	GPNNRAS	SSRDSSGFQVF	2.08	3 of 3	3 of 9
EGDSLRYEQAN	GKNNRPS	SSRDSSCFQVF	2.21	3 of 3	3 of 9
EGDSLRYYYAN	GKNNRPS	SSRDSLNFYVF	2.41	3 of 3	1 of 9
EGDSLRYYYAN	GKNNRPS	SSRYSSFFQGF	2.44	3 of 3	2 of 9
EGDSLRYYYAN	GANNRPS	SSCDSSWFQVF	2.46	3 of 3	4 of 9
EGDSLRYYYAN	GKNNRPS	SGRDSSGFQVG	2.48	3 of 3	6 of 9
EGDSLRYWYAN	GKNNRPS	SSRDSSGFAVF	2.49	3 of 3	1 of 9
EGDSLRYYWAN	GKNNRPS	SARDSSQFQVF	2.69	3 of 3	4 of 9
EGDSLRYYYAN	DKNNRPS	SSRDSFGFQVS	2.88	3 of 3	0 of 9
KGDSLRYYYAN	YKNNRPS	SSRDSSGFQVF	2.92	2 of 3	3 of 9
EGDSLRYYYAN	AKNNRPS	SSRDPSGFWVF	2.93	3 of 3	1 of 9
EGHSLRYYYAN	GKANRPS	SWRDSSGFQVF	3.07	1 of 3	4 of 9
EGDSLLYYYAN	GMNNRPS	SSRDESGFQVF	3.07	3 of 3	4 of 9
EGISLRYYYWN	GKNNRPS	SSRDYSGFQVF	3.11	1 of 3	2 of 9
EGDSLRYYYAN	GGNNRPS	SSRIGSGFQVF	3.23	2 of 3	1 of 9
AGDSLRYYYAN	GKLNRPS	SSRDSSHFQVF	3.25	1 of 3	6 of 9
EGDSLRYYYAN	GKNNRPS	SSRKSSGCQLF	3.26	2 of 3	4 of 9
EIDSLSYYYAN	GKNNRPS	SSRDSEGFQVF	3.27	3 of 3	2 of 9
EGNVLRYIYAN	GKNNRPS	SSRDSSGFQVF	3.31	2 of 3	1 of 9
EGDSLRYYYAN	GKNNHPL	SSRDSSGFGVF	3.39	3 of 3	2 of 9
EGYSLRYYCAN	GKNNRPS	SSRDSSGFFVF	3.39	1 of 3	1 of 9
EGDSLRYYYAN	GKNNRPI	SARDSSGVQVF	3.42	1 of 3	2 of 9
EGDWLRYYYAN	GKNQRVS	SSRDSSGFQVF	3.52	2 of 3	3 of 9
EGDSLRYYYAN	GKNNRPS	GSRDSSGFRVD	3.59	2 of 3	4 of 9
ECDSLRYYYAN	GKNNRPS	SSRDASGFQVN	3.62	3 of 3	2 of 9
EGDSLKYYYAN	QKNNRPS	SSRDSSGFQMF	3.67	1 of 3	1 of 9
EGDSLKYYYAN	GKNNRRS	SSRDSEGFQVF	3.69	2 of 3	2 of 9

Second part, the sequence after the result:

mean log10 Kd (nM)	detected	empty controls	CDR-L1	CDR-L2	CDR-L3
3.69	3 of 3	4 of 9	EGKSLRYYYAN	GKNNRPS	SSRTESGFQVF
3.69	3 of 3	1 of 9	EGDSLRYYYPN	GKNNRPL	SSRDSSGFQVL
3.74	1 of 3	2 of 9	EGDSIRYYYAN	GKNNRPF	SSRDSSGFQVS
3.81	1 of 3	3 of 9	EGDSLRYYYAL	GKNNRPT	SSRDSSGFPVF
3.85	2 of 3	2 of 9	ERDSLRYYYAA	GKNNRPS	SSRDSSGFNVF
3.87	3 of 3	2 of 9	EGDSLRYYYNN	GFNERPS	SSRDSSGFQVF
3.88	1 of 3	3 of 9	EGDSLRYYYAN	GKQNRWS	SSRDGSGFQVF
3.95	1 of 3	2 of 9	AGDSLRYYYAF	GKNNRPS	SSRDSLGFQVF
4.03	3 of 3	0 of 9	PGDSLPYYYAN	GKNNRPS	SQRDSSGFQVF
4.03	2 of 3	6 of 9	EWDSLRYYYAN	GKNNRPS	SSRDWSGFQVF
4.05	1 of 3	5 of 9	EGDSLRYYLAN	LKNNRPK	SSRDSSGFQVF
4.05	1 of 3	1 of 9	EGDSLRYYYAN	HKNARPS	SSRDYSGFQVF
4.08	2 of 3	1 of 9	EGDSLRYYYDN	GKNNRPS	SSSDSSGFQVF
4.11	2 of 3	4 of 9	EGDSLRYYYMN	GKNNRPV	SSRDSSGFQVC
4.16	2 of 3	1 of 9	EGRSLRYYYAR	GKNNRPS	SSRDSSGMQVF
4.17	1 of 3	1 of 9	EGDSLRYYYAN	GKNNRPK	SSRDSSKFFVF
4.17	2 of 3	3 of 9	EGDSLRYWYAN	GKNNRPS	SSRDSSHFQVF
4.32	1 of 3	2 of 9	EGDSLRYYYEN	GENNRPS	SSRDSSGFQVK
4.34	3 of 3	4 of 9	EGDSLRYYEAN	GKPARPS	SSRDSSGFQVF
4.57	2 of 3	4 of 9	EFDVLRYYYAN	GKNNRFS	SSRDSSGFQVF
4.67	2 of 3	3 of 9	EGDSVRYYYIN	GKNNRPS	SSQDSSGFQVF
4.79	1 of 3	2 of 9	EEDSLRYYYAN	GKNNRPS	SSRDSSSFQYF
5.50	1 of 3	3 of 9	EGDSLRYYYAN	GKMNRGS	SGRDSSGFQVF
5.55	1 of 3	1 of 9	EGDSLRYYYAN	GKWNTPS	SSFDSSGFQVF
6.16	1 of 3	2 of 9	EGDTLRYYYAN	GKNNRPS	SLRDSSGFQTF
not detected	0 of 3	1 of 9	EGDSWRYYYHN	GKNNRPS	SSRDSSGFQVF
not detected	0 of 3	5 of 9	EGLSLRYYYAR	GKNNRPS	SSRDSSGFQVI
not detected	0 of 3	0 of 9	EGDSLRYYYAC	GKNNRPS	SSRDSKGFQFF
not detected	0 of 3	0 of 9	EGCSARYYYAN	GKNNRPS	TSRDSSGFQVF
not detected	0 of 3	0 of 9	EGDSLRYYYAN	GKNNRPS	QSWDSQGFQVF
not detected	0 of 3	3 of 9	EGDSLRYYYAN	GKKNRPS	SSTASSGFQVF

The opening 8 entries, copied out:

CDR-L1	CDR-L2	CDR-L3	mean log10 Kd (nM)	detected	empty controls
EGDSLNYYAAN	GKNNRPM	SSRDSSGFQVF	1.33	3 of 3	5 of 9
EDDSLRYYYAN	GKNNRPS	NSRDSSGFQVN	1.57	3 of 3	2 of 9
EGDSLRYYKAD	GKNNRPM	SSRDSSGFQVF	2.04	3 of 3	4 of 9
EGTSLRYYYAN	GPNNRAS	SSRDSSGFQVF	2.08	3 of 3	3 of 9
EGDSLRYEQAN	GKNNRPS	SSRDSSCFQVF	2.21	3 of 3	3 of 9
EGDSLRYYYAN	GKNNRPS	SSRDSLNFYVF	2.41	3 of 3	1 of 9
EGDSLRYYYAN	GKNNRPS	SSRYSSFFQGF	2.44	3 of 3	2 of 9
EGDSLRYYYAN	GANNRPS	SSCDSSWFQVF	2.46	3 of 3	4 of 9

Data: MIT Lincoln Laboratory AlphaSeq set, Engelhart et al. 2022, doi:10.1038/s41597-022-01779-4, as distributed in FLAb.